Test results: paper PMC8624105 (Viruses, 2021)

Legend:
Assay in all cases: holdup assay
Assay type in all cases: binding, human
NHERF2 PDZ2 = system: NHERF2 PDZ2
MAST1 = system: MAST1
PTPN3 = system: PTPN3
NHERF3 PDZ1 = system: NHERF3 PDZ1
PARD3 = system: PARD3
GRID2IP PDZ2 = settings: PDZ about 4 μM; two independent experiments
PARD3B PDZ1 = settings: PDZ about 4 μM; two independent experiments
PARD3 PDZ3 = settings: PDZ about 4 μM; two independent experiments
DFNB31 PDZ1 = settings: PDZ about 4 μM; two independent experiments
MYO18A PDZ1 = settings: PDZ about 4 μM; two independent experiments
PDLIM3 PDZ1 = settings: PDZ about 4 μM; two independent experiments
ARHGEF12 PDZ1 = settings: PDZ about 4 μM; two independent experiments
SDCBP2 PDZ1 = settings: PDZ about 4 μM; two independent experiments
PPP1R9A PDZ1 = settings: PDZ about 4 μM; two independent experiments
HTRA1 PDZ1 = settings: PDZ about 4 μM; two independent experiments
LDB3 PDZ1 = settings: PDZ about 4 μM; two independent experiments
PDZRN3 PDZ2 = settings: PDZ about 4 μM; sd not given
DLG5 PDZ4 = settings: PDZ about 4 μM; two independent experiments
SNTB1 PDZ1 = settings: PDZ about 4 μM; two independent experiments
PDZRN3 PDZ1 = settings: PDZ about 4 μM; two independent experiments
NHERF3 PDZ3 = settings: PDZ about 4 μM; two independent experiments
TJP1 PDZ1 = settings: PDZ about 4 μM; two independent experiments
MPP4 PDZ1 = settings: PDZ about 4 μM; two independent experiments
LNX1 PDZ4 = settings: PDZ about 4 μM; two independent experiments
FRMPD2 PDZ3 = settings: PDZ about 4 μM; two independent experiments
MAGI2 PDZ1 = settings: PDZ about 4 μM; two independent experiments
MAGI2 PDZ4 = settings: PDZ about 4 μM; two independent experiments
MPP7 PDZ1 = settings: PDZ about 4 μM; two independent experiments
GRIP1 PDZ7 = settings: PDZ about 4 μM; two independent experiments
MPDZ PDZ3 = settings: PDZ about 4 μM; two independent experiments
PREX2 PDZ2 = settings: PDZ about 4 μM; two independent experiments
MAGI3 PDZ2 = settings: PDZ about 4 μM; two independent experiments
PCLO PDZ1 = settings: PDZ about 4 μM; two independent experiments
SIPA1L3 PDZ1 = settings: PDZ about 4 μM; two independent experiments
MPDZ PDZ5 = settings: PDZ about 4 μM; two independent experiments
MPDZ PDZ8 = settings: PDZ about 4 μM; two independent experiments
INTU PDZ1 = settings: PDZ about 4 μM; two independent experiments
FRMPD2 PDZ2 = settings: PDZ about 4 μM; two independent experiments
PDLIM5 PDZ1 = settings: PDZ about 4 μM; two independent experiments
APBA1 PDZ1 = settings: PDZ about 4 μM; sd not given
TX1B3 PDZ1 = settings: PDZ about 4 μM; two independent experiments
PDZD2 PDZ1 = settings: PDZ about 4 μM; two independent experiments
LIMK1 PDZ1 = settings: PDZ about 4 μM; two independent experiments
TJP2 PDZ3 = settings: PDZ about 4 μM; sd not given
USH1C PDZ3 = settings: PDZ about 4 μM; two independent experiments
PDZD2 PDZ5 = settings: PDZ about 4 μM; two independent experiments
TJP1 PDZ3 = settings: PDZ about 4 μM; two independent experiments
ARHGEF11 PDZ1 = settings: PDZ about 4 μM; two independent experiments
InaDl PDZ8 = settings: PDZ about 4 μM; two independent experiments
DLG4 PDZ1 = settings: PDZ about 4 μM; sd not given
[1] = PDZ about 4 μM, two independent experiments
[2] = converted from BI, PDZ typically 4 μM, immobilized peptide 21 μM, listed as PBM peptide from ACE2 protein, read-out: Kd estimated

Question: How did the “BI (binding intensity)” value (NHERF2 PDZ2; [1]) turn out when “Biotin-(PEG3)-GFQNTDDVQTSF [ACE2 PBM peptide]” was run?
Answer: 0.67

Question: What about the Kd estimated (NHERF2 PDZ2; converted from BI, PDZ typically 4 μM, immobilized peptide 21 μM) of the same substance?
Answer: micromolar range

Question: What about the Kd (NHERF2 PDZ2; converted from BI, PDZ typically 4 μM, immobilized peptide 21 μM, read-out: Kd estimated) of the same substance?
Answer: 9.3 µM

Question: And the “BI (binding intensity)” value (MAST1; [1])?
Answer: 0.63

Question: What about the Kd (MAST1; [2]) of the same substance?
Answer: 10.7 µM

Question: And the “BI (binding intensity)” value (PTPN3; [1])?
Answer: 0.54

Question: And the Kd (PTPN3; [2])?
Answer: 16.2 µM

Question: And the “BI (binding intensity)” value (NHERF3 PDZ1; [1])?
Answer: 0.50

Question: And the Kd (NHERF3 PDZ1; [2])?
Answer: 19.2 µM

Question: And the “BI (binding intensity)” value (PARD3; [1])?
Answer: 0.28

Question: What about the Kd (PARD3; [2]) of the same substance?
Answer: 51.1 µM

Question: And the “BI (binding intensity)” value (GRID2IP PDZ2)?
Answer: 0.14

Question: And the “BI (binding intensity)” value (PARD3B PDZ1)?
Answer: 0.10

Question: And the “BI (binding intensity)” value (PARD3 PDZ3)?
Answer: 0.09

Question: And the “BI (binding intensity)” value (DFNB31 PDZ1)?
Answer: 0.09

Question: And the “BI (binding intensity)” value (MYO18A PDZ1)?
Answer: 0.06

Question: What about the “BI (binding intensity)” value (PDLIM3 PDZ1) of the same substance?
Answer: 0.05

Question: And the “BI (binding intensity)” value (ARHGEF12 PDZ1)?
Answer: 0.04

Question: What about the “BI (binding intensity)” value (SDCBP2 PDZ1) of the same substance?
Answer: 0.03

Question: What about the “BI (binding intensity)” value (PPP1R9A PDZ1) of the same substance?
Answer: 0.02

Question: And the “BI (binding intensity)” value (HTRA1 PDZ1)?
Answer: 0.02

Question: What about the “BI (binding intensity)” value (LDB3 PDZ1) of the same substance?
Answer: 0.02

Question: What about the “BI (binding intensity)” value (PDZRN3 PDZ2) of the same substance?
Answer: 0.01

Question: And the “BI (binding intensity)” value (DLG5 PDZ4)?
Answer: -0.01

Question: What about the “BI (binding intensity)” value (SNTB1 PDZ1) of the same substance?
Answer: -0.01

Question: What about the “BI (binding intensity)” value (PDZRN3 PDZ1) of the same substance?
Answer: -0.01

Question: What about the “BI (binding intensity)” value (NHERF3 PDZ3) of the same substance?
Answer: -0.01

Question: And the “BI (binding intensity)” value (TJP1 PDZ1)?
Answer: -0.01

Question: And the “BI (binding intensity)” value (MPP4 PDZ1)?
Answer: -0.02

Question: What about the “BI (binding intensity)” value (LNX1 PDZ4) of the same substance?
Answer: -0.02

Question: What about the “BI (binding intensity)” value (FRMPD2 PDZ3) of the same substance?
Answer: -0.03

Question: What about the “BI (binding intensity)” value (MAGI2 PDZ1) of the same substance?
Answer: -0.04

Question: And the “BI (binding intensity)” value (MAGI2 PDZ4)?
Answer: -0.04

Question: And the “BI (binding intensity)” value (MPP7 PDZ1)?
Answer: -0.04

Question: What about the “BI (binding intensity)” value (GRIP1 PDZ7) of the same substance?
Answer: -0.04

Question: And the “BI (binding intensity)” value (MPDZ PDZ3)?
Answer: -0.04

Question: And the “BI (binding intensity)” value (PREX2 PDZ2)?
Answer: -0.05

Question: And the “BI (binding intensity)” value (MAGI3 PDZ2)?
Answer: -0.05

Question: What about the “BI (binding intensity)” value (PCLO PDZ1) of the same substance?
Answer: -0.05

Question: And the “BI (binding intensity)” value (SIPA1L3 PDZ1)?
Answer: -0.05

Question: What about the “BI (binding intensity)” value (MPDZ PDZ5) of the same substance?
Answer: -0.05

Question: What about the “BI (binding intensity)” value (MPDZ PDZ8) of the same substance?
Answer: -0.06

Question: What about the “BI (binding intensity)” value (INTU PDZ1) of the same substance?
Answer: -0.07

Question: And the “BI (binding intensity)” value (FRMPD2 PDZ2)?
Answer: -0.07

Question: What about the “BI (binding intensity)” value (PDLIM5 PDZ1) of the same substance?
Answer: -0.08

Question: And the “BI (binding intensity)” value (APBA1 PDZ1)?
Answer: -0.08

Question: What about the “BI (binding intensity)” value (TX1B3 PDZ1) of the same substance?
Answer: -0.09

Question: What about the “BI (binding intensity)” value (PDZD2 PDZ1) of the same substance?
Answer: -0.09

Question: And the “BI (binding intensity)” value (LIMK1 PDZ1)?
Answer: -0.10

Question: What about the “BI (binding intensity)” value (TJP2 PDZ3) of the same substance?
Answer: -0.10

Question: And the “BI (binding intensity)” value (USH1C PDZ3)?
Answer: -0.11

Question: And the “BI (binding intensity)” value (PDZD2 PDZ5)?
Answer: -0.13

Question: What about the “BI (binding intensity)” value (TJP1 PDZ3) of the same substance?
Answer: -0.14

Question: And the “BI (binding intensity)” value (ARHGEF11 PDZ1)?
Answer: -0.18

Question: And the “BI (binding intensity)” value (InaDl PDZ8)?
Answer: -0.24

Question: What about the “BI (binding intensity)” value (DLG4 PDZ1) of the same substance?
Answer: -0.50
